In ChEMBL document CHEMBL3822383, “Coumarin sulfonamides derivatives as potent and selective COX-2 inhibitors with efficacy in suppressing cancer proliferation and metastasis” (Bioorg Med Chem Lett, 2016):

species: Homo sapiens; assay: Selectivity ratio of IC50 for human COX1 to IC50 for human COX2

Compound | Ratio IC50
COc1cccc(-c2cc(C(=O)N/N=C/c3c(Cl)c4ccccc4oc3=O)nn2-c2ccc(S(N)(=O)=O)cc2)c1 | > 16
Cc1ccc(-c2cc(C(=O)N/N=C/c3c(Cl)c4ccccc4oc3=O)nn2-c2ccc(S(N)(=O)=O)cc2)cc1 | 12.9
NS(=O)(=O)c1ccc(-n2nc(C(=O)N/N=C/c3c(Cl)c4ccccc4oc3=O)cc2-c2ccc(F)cc2)cc1 | 314
Cc1ccc(-c2cc(C(=O)N/N=C/c3c(Cl)c4ccccc4oc3=O)nn2-c2ccc(S(N)(=O)=O)cc2)c(C)c1 | 5.5
NS(=O)(=O)c1ccc(-n2nc(C(=O)N/N=C/c3c(Cl)c4ccccc4oc3=O)cc2-c2cccc(Cl)c2)cc1 | > 185
NS(=O)(=O)c1ccc(-n2nc(C(=O)N/N=C/c3c(Cl)c4ccccc4oc3=O)cc2-c2ccccc2Cl)cc1 | 81.3
NS(=O)(=O)c1ccc(-n2nc(C(=O)N/N=C/c3c(Cl)c4ccccc4oc3=O)cc2-c2ccc(Cl)c(Cl)c2)cc1 | 323
COc1ccc(-c2cc(C(=O)N/N=C/c3c(Cl)c4ccccc4oc3=O)nn2-c2ccc(S(N)(=O)=O)cc2)cc1 | 8.1
Cc1cccc(-c2cc(C(=O)N/N=C/c3c(Cl)c4ccccc4oc3=O)nn2-c2ccc(S(N)(=O)=O)cc2)c1 | 10
COc1cc(-c2cc(C(=O)N/N=C/c3c(Cl)c4ccccc4oc3=O)nn2-c2ccc(S(N)(=O)=O)cc2)cc(OC)c1OC | 2.7
NS(=O)(=O)c1ccc(-n2nc(C(=O)N/N=C/c3c(Cl)c4ccccc4oc3=O)cc2-c2ccccc2)cc1 | > 22
COc1ccc(-c2cc(C(=O)N/N=C/c3c(Cl)c4ccccc4oc3=O)nn2-c2ccc(S(N)(=O)=O)cc2)cc1OC | 6.6
NS(=O)(=O)c1ccc(-n2nc(C(=O)N/N=C/c3c(Cl)c4ccccc4oc3=O)cc2-c2ccccc2F)cc1 | > 212
